pIC50: −log10 of the molar value.

From ChEMBL document CHEMBL1130062 (J Med Chem, 1997) come the findings set out here.

This assay concerns the target T1, Dihydrofolate reductase (Pneumocystis carinii, UniProt P16184).
T1 sequence (P16184 whole entry): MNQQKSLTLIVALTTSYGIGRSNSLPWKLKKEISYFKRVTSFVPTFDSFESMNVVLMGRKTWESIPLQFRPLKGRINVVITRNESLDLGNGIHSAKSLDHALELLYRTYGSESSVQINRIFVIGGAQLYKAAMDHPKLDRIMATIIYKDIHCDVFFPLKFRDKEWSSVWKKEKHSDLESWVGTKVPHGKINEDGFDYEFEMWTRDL
Regarding `CCc1nc(N)nc(N)c1-c1ccc(Cl)c(/N=N/N(CCOC)CCOC)c1`, the negative logarithm of the IC50 (pIC50) was 6.04.

In turn, `CCc1nc(N)nc(N)c1-c1ccc(Cl)c(/N=N/N(C)CCN(CC)CC)c1` gave a negative-log IC50 (pIC50) of 4.74.

With `CCc1nc(N)nc(N)c1-c1ccc(Cl)c(/N=N/N2CCOCC2)c1`, the pIC50 is 5.77. This pIC50 is 1.03 log units higher than that of the compound before.

Regarding `CCc1nc(N)nc(N)c1-c1ccc(Cl)c(N/N=N\C)c1`, the negative-log IC50 (pIC50) is 5.34.
